Source: patent publication US12129233B2, “Water-soluble salts of cannabinoids, preparation and uses thereof” (priority 2021, dated 2024)

Settings: in water; synthesized salts (and cannabinol parent)

Substance	Solubility
L-Lysine Salt with CBD (1:1) [drawing 17/drawing 19 1:1]	2000 µg/mL
L-Lysine Salt with CBD (2:1) [drawing 17/drawing 19 1:2]	4000 µg/mL
